Data reported in US12410399B2, “Compositions and methods for treating retinal diseases” (The Regents of the University of California, priority 2011, dated 2025).

Tested on: hRPCs
Assay: hRPC culture medium and supplement comparison (yield, proliferation)
Assay type: cell-based, human
Protocol: Various serum- and xeno-free cell culture media were tested to determine the optimum condition for propagating RPCs, including DMEM/FF12 (standard, Advanced and KnockOut; Invitrogen), Neurobasal (Invitrogen), Ultraculture (Lonza), and ReNcell (Chemicon). Cell culture media used in the culture of RPCs were sometimes supplemented with N2 supplement (Invitrogen), B27 (Invitrogen or other brand), Stempro (Invitrogen), vitamin C, albumin, recombinant human epidermal growth factor (EGF), basic fibroblast growth factor (bFGF), GlutaMAX I, L-Glutamine, and/or Penicillin-Streptomycin (Invitrogen) for first 2 weeks. “SM” as provided herein refers to standard growth medium based on DMEM/FF12. “UL” is referred to herein as growth medium using Ultraculture as the base medium. Serum-free media was used in the absence of antibiotics or with antibiotics for first two weeks, followed by antibiotic-free media for about 6 weeks. No antifungal agents were used. […] For base medium, standard DMEM/F12, a media supplemented with N2 Supplement, growth factors, glutamine or GLUTAMAX™ (GlutaMax™), was compared with “Advanced DMEM/FF12”, supplemented in the same way.
The effects of cell culture supplementation were also explored. To that end, the N2 supplement was also compared with the B27 xeno-free supplement. […] The effects of additional vitamin C were also tested. […]

albumin: xeno-free human recombinant albumin added to medium at 1.0 mg/ml
enhancement of proliferation (1.0 mg/ml added to standard DMEM/F12-based medium): up to 27%
enhancement of proliferation (additional albumin added to Advanced DMEM/F12-based medium): no detectable improvement
